From PMC10598209 (Nature Communications, 2023) come the findings set out here.

Assay [1] concerns the target T1, human RPA heterotrimer (RPA70-RPA32-RPA14) (human, UniProt P27694 1-616; P15927 1-270; P35244 1-121).
T1 construct: human RPA70; human RPA32; human RPA14; also called heterotrimeric RPA; full-length RPA heterotrimer; source: expression vector a gift from Marc S. Wold; copies: + +
Nature of the assay: pull-down; MBP-RECQ4(1–400)-His and full-length RPA heterotrimer (8 μg each) with amylose resin, 30 min at 4 °C, 20 mM K2HPO4 pH 7.5, 10% glycerol, 0.5 mM EDTA, 100 mM KCl, 0.01% NP40, 2 mM BME; SDS-PAGE, Coomassie. Particulars: both partners purified.

Assay [2] deals with T1, human RPA heterotrimer …. Nature of the assay: NMR titration; 1H-15N HSQC of 50 or 100 μM 15N-labelled protein (RECQ4 or RPA) with step-wise addition or an excess of the unlabelled partner; buffer and temperature in Supplementary Table 6. Particulars: both partners purified.

B1: MBP-RECQ4(1–400)-His (domain or fragment, human, UniProt O94761 1-400, looked up)
chain: MERLRDVRERLQAWERAFRRQRGRRPSQDDVEAAPEETRALYREYRTLKRTTGQAGGGLRSSESLPAAAEEAPEPRCWGPHLNRAATKSPQSTPGRSRQGSVPDYGQRLKANLKGTLQAGPALGRRPWPLGRASSKASTPKPPGTGPVPSFAEKVSDEPPQLPEPQPRPGRLQHLQASLSQRLGSLDPGWLQRCHSEVPDFLGAPKACRPDLGSEESQLLIPGESAVLGPGAGSQGPEASAFQEVSIRVGSPQPSSSGGEKRRWNEEPWESPAQVQQESSQAGPPSEGAGAVAVEEDPPGEPVQAQPPQPCSSPSNPRYHGLSPSSQARAGKAEGTAPLHIFPRLARHDRGNYVRLNMKQKHYVRGRALRSRLLRKQAWKQKWRKKGECFGGGGATVTTK
notes: human RECQ4, Sld2-like region, residues 1-400; also called Sld2-like region of RECQ4 (aa 1–400); not shown: MBP, N-terminal, kept
Regarding B1, the binding result in assay [1] was “binds”.

B2: RECQ4(1–400) (domain or fragment, human, UniProt O94761 1-400, looked up)
chain: B1 chain
notes: H. sapiens RECQ4 residues 1-400, cloned in pET-M11 between NcoI and BamHI; 15N-enriched for NMR; also called Sld2-like region of RECQ4; 15N-enriched RECQ4 (1–400); source: E. coli BL21(DE3), purified (IMAC, TEV cleavage, Mono S, Superdex 75); not shown: His6, N-terminal, cleaved
Take B2: in assay [2], the binding result is reported as “binds”.
